{"source": "patent US8415362B2", "about": "“Pyrazolyl substituted pyrrolo[2,3-b]pyrimidines as Janus kinase inhibitors” (Incyte Corporation, priority 2005, dated 2013)", "origin": "cited, not measured here", "settings": "some patients", "data": [{"substance": "Erbitux: \"new targeted anti-cancer agents such as Iressa, Erbitux, and Tarceva\"", "values": [{"measurement": "acneiform rash", "value": "induced acneiform rash"}]}]}
